Patent publication US7029878B2, “Melanin concentrating hormone receptor chimeric and fusion proteins” (Merck & Co., Inc., priority 2000, dated 2006)

Columns and labels:
Format in all cases: cell-based
[1] = target: T1, Mouse MCH1R-1-EGFP (mouse MCH1R-linker-EGFP) (Mus musculus, UniProt Q8JZL2); assay: cAMP production (FlashPlate), transiently transfected CHO cells stimulated with human MCH; conditions: transient CHO, Table 1
T1 construct: ID; NO; 11 (mouse MCH1R-linker-EGFP); 12 amino acid linker […]; expressed in transfected cells; host or cells: CHO (transient) and HEK293 Aequorin (transient)
Experimental: (§1) Both HEK293 Aequorin (National Institutes of Health) and CHO mammalian cell lines were transiently transfected with the various MCH1R/GFP variant fusion constructs, as well as the appropriate control constructs. Transfection was performed using Lipofectamine 2000 (Gibco BRL) per the manufacturer recommended protocol. Approximately 48 hours after transfection cells were harvested, stimulated with various concentrations of human MCH, and assayed for either aequorin bioluminescence (HEK293 Aequorin cells) or cAMP production (CHO cells). Aequorin bioluminescence is a representative measure of intracellular Ca^2+ mobilization. cAMP production was measured with the Adenylyl Cyclase Activation FlashPlate Assay (NEN Life Science Products, Inc.).

[2] = target: T2, Mouse MCH1R/EGFP direct fusion (Mus musculus, UniProt Q8JZL2); assay: as above; conditions: transient CHO, Table 1
T2 construct: ID; NO; 12 (mouse MCH1R/EGFP direct fusion); expressed in transfected cells; host or cells: CHO (transient)
Experimental: as §1

mMCH1R-1-EGFP = target: T3, mMCH1R-1-EGFP (Mus musculus, UniProt Q8JZL2); assay: aequorin bioluminescence, transiently transfected HEK293 Aequorin cells stimulated with human MCH; conditions: transient HEK293 Aequorin, FIG. 1
T3 construct: ID; NO; 11 (mouse MCH1R-linker-EGFP); 12 amino acid linker […]; expressed in transfected cells; host or cells: CHO (transient) and HEK293 Aequorin (transient)
Experimental: FIG. 1 illustrates aequorin assay results comparing a mouse MCH-R fusion with a human wild type MCH-R and a CMV-EGFP control.
as §1

For human MCH, the EC50 [1] was 3.2 nM, the EC50 [2] was 0.819 nM and the “EC50 compared with wild-type human short form receptor” value (mMCH1R-1-EGFP) was “nearly identical to that of the wild-type human short form receptor”.
